Measured values from the Human Domainome abundance scans (Beltran et al. 2025).

B1: Tyrosine-protein kinase ABL1, residues 64 to 120; numbered along this chain, P00519 (parent)
chain: NLFVALYDFVASGDNTLSITKGEKLRVLGYNHNGEWCEAQTKNGQGWVPSNYITPVN

Variants of: B1
Assay: abundance fitness (aPCA) (normalised: wild type 0, dead -1); higher = more abundant; growth selection in yeast, the domain comes from the species named
Settings: Homo sapiens
Variant NLFVALYDFVASGDNTLSITKGEKLRVLGYNHNGEWCHAQTKNGQGWVPSNYITPVN has an abundance fitness of -0.116 ± 0.11. NLFVALYDFVASGDNTLSITKGEKLRVLGYNHNGEWCCAQTKNGQGWVPSNYITPVN gave an abundance fitness of -0.286 ± 0.12. For NLFVALYDFVASGDNTLSITKGEKLRVLGYNHNGEWCSAQTKNGQGWVPSNYITPVN, the abundance fitness was -0.058 ± 0.081. NLFVALYDFVASGDNTLSITKGEKLRVLGYNHNGEWCIAQTKNGQGWVPSNYITPVN gave an abundance fitness of -0.266 ± 0.11. NLFVALYDFVASGDNTLSITKGEKLRVLGYNHNGEWCLAQTKNGQGWVPSNYITPVN showed an abundance fitness of -0.208 ± 0.094. Variant NLFVALYDFVASGDNTLSITKGEKLRVLGYNHNGEWCAAQTKNGQGWVPSNYITPVN has an abundance fitness of -0.427 ± 0.082. NLFVALYDFVASGDNTLSITKGEKLRVLGYNHNGEWCFAQTKNGQGWVPSNYITPVN showed an abundance fitness of -0.16 ± 0.086. In the case of NLFVALYDFVASGDNTLSITKGEKLRVLGYNHNGEWCYAQTKNGQGWVPSNYITPVN, the abundance fitness is reported as -0.334 ± 0.15. Work on NLFVALYDFVASGDNTLSITKGEKLRVLGYNHNGEWCQAQTKNGQGWVPSNYITPVN yielded an abundance fitness of -0.291 ± 0.17. For NLFVALYDFVASGDNTLSITKGEKLRVLGYNHNGEWCNAQTKNGQGWVPSNYITPVN, the abundance fitness was -0.147 ± 0.14. NLFVALYDFVASGDNTLSITKGEKLRVLGYNHNGEWCMAQTKNGQGWVPSNYITPVN showed an abundance fitness of -0.126 ± 0.062. Work on NLFVALYDFVASGDNTLSITKGEKLRVLGYNHNGEWCWAQTKNGQGWVPSNYITPVN yielded an abundance fitness of -0.5 ± 0.14. With NLFVALYDFVASGDNTLSITKGEKLRVLGYNHNGEWCRAQTKNGQGWVPSNYITPVN the abundance fitness was -0.233 ± 0.077. Variant NLFVALYDFVASGDNTLSITKGEKLRVLGYNHNGEWCDAQTKNGQGWVPSNYITPVN has an abundance fitness of 0.125 ± 0.11. NLFVALYDFVASGDNTLSITKGEKLRVLGYNHNGEWCKAQTKNGQGWVPSNYITPVN gave an abundance fitness of 0.097 ± 0.092. For NLFVALYDFVASGDNTLSITKGEKLRVLGYNHNGEWCGAQTKNGQGWVPSNYITPVN, the abundance fitness was -0.411 ± 0.067. For NLFVALYDFVASGDNTLSITKGEKLRVLGYNHNGEWCVAQTKNGQGWVPSNYITPVN, the abundance fitness was -0.21 ± 0.059. In the case of NLFVALYDFVASGDNTLSITKGEKLRVLGYNHNGEWCTAQTKNGQGWVPSNYITPVN, the abundance fitness is reported as -0.194 ± 0.078. Variant NLFVALYDFVASGDNTLSITKGEKLRVLGYNHNEEWCEAQTKNGQGWVPSNYITPVN has an abundance fitness of 0.154 ± 0.086. Work on NLFVALYDFVASGDNTLSITKGEKLRVLGYNHNSEWCEAQTKNGQGWVPSNYITPVN yielded an abundance fitness of -0.041 ± 0.099. For NLFVALYDFVASGDNTLSITKGEKLRVLGYNHNQEWCEAQTKNGQGWVPSNYITPVN, the abundance fitness was 0.102 ± 0.13. NLFVALYDFVASGDNTLSITKGEKLRVLGYNHNMEWCEAQTKNGQGWVPSNYITPVN gave an abundance fitness of -0.096 ± 0.16. Work on NLFVALYDFVASGDNTLSITKGEKLRVLGYNHNYEWCEAQTKNGQGWVPSNYITPVN yielded an abundance fitness of -0.196 ± 0.1. NLFVALYDFVASGDNTLSITKGEKLRVLGYNHNTEWCEAQTKNGQGWVPSNYITPVN gave an abundance fitness of -0.115 ± 0.13. NLFVALYDFVASGDNTLSITKGEKLRVLGYNHNFEWCEAQTKNGQGWVPSNYITPVN gave an abundance fitness of -0.198 ± 0.082. NLFVALYDFVASGDNTLSITKGEKLRVLGYNHNDEWCEAQTKNGQGWVPSNYITPVN showed an abundance fitness of 0.003 ± 0.11. In the case of NLFVALYDFVASGDNTLSITKGEKLRVLGYNHNLEWCEAQTKNGQGWVPSNYITPVN, the abundance fitness is reported as -0.228 ± 0.085. Work on NLFVALYDFVASGDNTLSITKGEKLRVLGYNHNAEWCEAQTKNGQGWVPSNYITPVN yielded an abundance fitness of 0.04 ± 0.07. NLFVALYDFVASGDNTLSITKGEKLRVLGYNHNNEWCEAQTKNGQGWVPSNYITPVN showed an abundance fitness of 0.263 ± 0.19. NLFVALYDFVASGDNTLSITKGEKLRVLGYNHNREWCEAQTKNGQGWVPSNYITPVN gave an abundance fitness of 0.161 ± 0.077. For NLFVALYDFVASGDNTLSITKGEKLRVLGYNHNWEWCEAQTKNGQGWVPSNYITPVN, the abundance fitness was -0.279 ± 0.14. Work on NLFVALYDFVASGDNTLSITKGEKLRVLGYNHNKEWCEAQTKNGQGWVPSNYITPVN yielded an abundance fitness of 0.112 ± 0.061. Variant NLFVALYDFVASGDNTLSITKGEKLRVLGYNHNHEWCEAQTKNGQGWVPSNYITPVN has an abundance fitness of 0.037 ± 0.28. Variant NLFVALYDFVASGDNTLSITKGEKLRVLGYNHNIEWCEAQTKNGQGWVPSNYITPVN has an abundance fitness of -0.426 ± 0.27. NLFVALYDFVASGDNTLSITKGEKLRVLGYNHNCEWCEAQTKNGQGWVPSNYITPVN showed an abundance fitness of -0.172 ± 0.12. NLFVALYDFVASGDNTLSITKGEKLRVLGYNHWGEWCEAQTKNGQGWVPSNYITPVN gave an abundance fitness of -0.389 ± 0.11. For NLFVALYDFVASGDNTLSITKGEKLRVLGYNHQGEWCEAQTKNGQGWVPSNYITPVN, the abundance fitness was -0.066 ± 0.06. With NLFVALYDFVASGDNTLSITKGEKLRVLGYNHSGEWCEAQTKNGQGWVPSNYITPVN the abundance fitness was -0.032 ± 0.068. NLFVALYDFVASGDNTLSITKGEKLRVLGYNHTGEWCEAQTKNGQGWVPSNYITPVN showed an abundance fitness of 0.173 ± 0.098. NLFVALYDFVASGDNTLSITKGEKLRVLGYNHVGEWCEAQTKNGQGWVPSNYITPVN showed an abundance fitness of -0.303 ± 0.087. For NLFVALYDFVASGDNTLSITKGEKLRVLGYNHPGEWCEAQTKNGQGWVPSNYITPVN, the abundance fitness was -0.408 ± 0.1. In the case of NLFVALYDFVASGDNTLSITKGEKLRVLGYNHYGEWCEAQTKNGQGWVPSNYITPVN, the abundance fitness is reported as -0.742 ± 0.24. Work on NLFVALYDFVASGDNTLSITKGEKLRVLGYNHRGEWCEAQTKNGQGWVPSNYITPVN yielded an abundance fitness of -0.187 ± 0.075. With NLFVALYDFVASGDNTLSITKGEKLRVLGYNHNGEWYEAQTKNGQGWVPSNYITPVN the abundance fitness was -0.041 ± 0.098. NLFVALYDFVASGDNTLSITKGEKLRVLGYNHNGEWCEGQTKNGQGWVPSNYITPVN gave an abundance fitness of 0.027 ± 0.076. With NLFVALYDFVASGDNTLSITKGEKLRVLGYNHNGEWCEFQTKNGQGWVPSNYITPVN the abundance fitness was -0.494 ± 0.3.

± gives the uncertainty stated by the source.
